Experimental data: PubChem BioAssay AID2316 (Broad Institute, 2010)
The entries are a selection whose mix differs from that of the whole data set. Some salts or complexes appear as unconnected parts, following the source record. Active and inactive are the calls of the source. The rule behind the calls is not given here.

experiment: reversal of PD-1 mediated T-cell inhibition, primary screen, luminescence, primary human CD4 T cells, PD-L1 beads (AID 2316); conditions: CellTiter-Glo 96 h, stronger effect = higher value;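 note: 0% = median vehicle wells and 100% = positive control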

Row | Compound | activation
1 | COc1cc2c(cc1NP(C)(=O)Oc1ccccc1)oc1ccccc12 (stereo not given) | inactive: -0.934%
2 | C/C1=C2N=C(/C=C3N=C(/C(C)=C4\[N-][C@@](C)([C@@H]5N=C1[C@](C)(CCC(=O)NCC(C)OP(=O)(O)O[C@@H]1[C@H](O)[C@H](n6cnc7cc(C)c(C)cc76)O[C@H]1CO)[C@H]5CC(N)=O)[C@@](C)(CC(N)=O)[C@@H]4CCC(N)=O)[C@@](C)(CC(N)=O)[C@@H]\3CCC(N)=O)C(C)(C)[C@@H]/2CCC(N)=O.[C-]#N.[Co+3] (stereo not given in full) | inactive: -0.161%
3 | O=P1(Nc2ccccn2)COc2ccccc2OC1 | inactive: 0.374%
4 | Cc1ccc(C(=O)OC2CN3CCC2CC3)cc1 (stereo not given) | inactive: 1.12%
5 | O=C(OC1CN2CCC1CC2)c1ccc(Cl)cc1 (stereo not given) | inactive: 1.37%
